The record followed here is US7179632B2, “Process for the production of allicin” (Neem Biotech Ltd., priority 2001, dated 2007).

A short description of this series: Solubility of alliin in water. Format: physicochemical.

For S-allyl-L-cysteine sulfoxide [Alliin], the solubility in water entry is “freely soluble”.
